Only a part is listed here, and it is no random draw. Active and inactive are the calls of the source. Cut-off read from the data, not from the text of the source: active = activation above about 7.8%; inactive = the rest.

A short description of the experiment: SMARCA2 (BRM) function activators, primary screen, cell-based, luminescence, high throughput (AID 652017).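 Note: 0% = vehicle wells and 100% = reference activator wells.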 Conditions: MG213 cells, MMTV-luciferase reporter, dexamethasone, overnight; at 9.1 µM; hits give high values.
Take `O=[N+]([O-])c1ncn(CCn2ncnc2[N+](=O)[O-])n1`: the activation is inactive: -3.16%.

As to `CC(C)(C)C(=O)NC(Sc1ccncn1)C(Cl)(Cl)Cl` (stereo not drawn), the activation was inactive: 1.43%.

As for `O=C(O)CNc1ccc([As](=O)(O)O)cc1`, the activation is inactive: -2.01%.

For `COC(=O)C1(C)COP(=O)(Nc2ccccc2)OC1` (stereo not drawn), the activation is inactive: -4.8%.

Consider `O=[N+]([O-])c1cccc(NC2=NCC(CBr)S2)c1` (stereo not drawn), for which the activation was inactive: -3.71%.

With `O=P1(N(CCCl)CCCl)OCCCS1` (stereo not drawn), the activation is inactive: -1.46%.

With `O=C(Nc1cc([As](=O)(O)O)ccc1O)c1ccccc1`, the activation is inactive: -2.98%.

As to `CCN(/C(=N/P(=O)(N1CCOCC1)N1CCOCC1)N1CCOCC1)c1ccc(OC)cc1`, the activation was inactive: 1.66%.

Regarding `Nc1ccc([As](=O)(O)c2ccc(N)cc2)cc1`, the activation was inactive: -4.41%.

As to `C[N+]1=C2C=CC=CC=C2SC12C([N+](=O)[O-])=CC([N+](=O)[O-])=C[C-]2[N+](=O)[O-]` (stereo not drawn), the activation was inactive: -8.65%.

Consider `CC1CCN(C(=O)Oc2c(Cl)cc(Cl)c3cccnc23)CC1`, for which the activation is inactive: -0.66%.

Turning to `c1cc(-c2nn[nH]n2)ccc1-c1nn[nH]n1`, the activation is inactive: -1.98%.

On to `CC(C)c1nc(Nc2ccccc2)n(P(=O)(N(C)C)N(C)C)n1`, for which the activation was inactive: -2.48%.

On to `CC(C)=N/N=C(\N)N[N+](=O)[O-]`, for which the activation is inactive: 0.32%.

Take `CN(C)C(=O)OCCc1n(C)cc[n+]1C`: the activation is inactive: 0.02%.

Consider `COc1ccc(C2=NCC(CBr)S2)cc1` (stereo not drawn), for which the activation is inactive: -0.69%.

For the compound `Cc1ccc(NP(=O)(Oc2ccccc2)Oc2ccccc2)nc1`, the activation was inactive: -1.15%.

Take `O=[N+]([O-])c1cc([N+](=O)[O-])c(CCNc2ccccc2)c([N+](=O)[O-])c1`: the activation is inactive: -2.47%.

On to `CCc1nc2c(n1)c1c(non1O)c1c2no[n+]1[O-]`, for which the activation is inactive: -8.53%.

For `CC(=O)N1C2C3N(C(C)=O)C1C1N(C(C)=O)C(C(N1C(C)=O)N3C(C)=O)N2C(C)=O`, the activation was inactive: 1.91%.

Consider `O=[N+]([O-])c1cccc2n[nH]nc12`, for which the activation was inactive: -4.56%.

Regarding `Oc1ccccc1CNc1ccccn1`, the activation was inactive: -3%.

Take `O=C(NC(Sc1ccncn1)C(Cl)(Cl)Cl)c1ccccc1` (stereo not drawn): the activation was inactive: -3.69%.

As for `Nc1cc(N)c2nonc2c1[N+](=O)[O-]`, the activation is inactive: -5.5%.

With `CC(C)CC(=O)NC(Sc1ccc(Cl)cc1)C(Cl)(Cl)Cl` (stereo not drawn), the activation was inactive: -2.05%.

Regarding `CN(C(=O)Cc1ccc(Cl)c(Cl)c1)[C@H]1CCCC[C@H]1N1CCCC1`, the activation is inactive: -6.09%.

Turning to `Cc1ccc(N/C(=N/P(=O)(N2CCOCC2)N2CCOCC2)N2CCOCC2)cc1`, the activation is inactive: -1.8%.

Turning to `NC(=O)c1cc([N+](=O)[O-])cc([N+](=O)[O-])c1N`, the activation is inactive: -3.48%.

The values above are taken from PubChem BioAssay AID652017 (The Scripps Research Institute Molecular Screening Center, 2013).
